Patent publication US4681091A, “Combination modality cancer therapy” (priority 1985, dated 1987)

System: bacterial cells (salmonella typhimurium TM677)
Conditions: salmonella typhimurium tm677, 0 h, 200 µM

dichlorobis (ethylenediamine) rhodium (III) [Compound 3]
N/No (toxicity): 1
